Assay results reported in PubChem BioAssay AID624170 (National Center for Advancing Translational Sciences (NCATS), 2012).
Values joined by “and” are separate entries in the source; they are usually repeats but may differ in a detail not shown here. Equal values may be shown once. Shown are results outside the selection of hits, which stands elsewhere. Records with an inconclusive call do not appear. Active and inactive are the calls of the source. Calls come from the whole dose curve; as a rule, active = well fitted inhibition curve with a large enough effect; inconclusive = small, poorly fitted or top-dose-only effect, or another doubt; inactive = no such curve, though single readings can be large or run the other way.

Chains of the proteins cited; added tags and fusions are not shown. Lines headed by an entry give the natural chain unless they say otherwise; changes in a name come on top.
UniProt O94925: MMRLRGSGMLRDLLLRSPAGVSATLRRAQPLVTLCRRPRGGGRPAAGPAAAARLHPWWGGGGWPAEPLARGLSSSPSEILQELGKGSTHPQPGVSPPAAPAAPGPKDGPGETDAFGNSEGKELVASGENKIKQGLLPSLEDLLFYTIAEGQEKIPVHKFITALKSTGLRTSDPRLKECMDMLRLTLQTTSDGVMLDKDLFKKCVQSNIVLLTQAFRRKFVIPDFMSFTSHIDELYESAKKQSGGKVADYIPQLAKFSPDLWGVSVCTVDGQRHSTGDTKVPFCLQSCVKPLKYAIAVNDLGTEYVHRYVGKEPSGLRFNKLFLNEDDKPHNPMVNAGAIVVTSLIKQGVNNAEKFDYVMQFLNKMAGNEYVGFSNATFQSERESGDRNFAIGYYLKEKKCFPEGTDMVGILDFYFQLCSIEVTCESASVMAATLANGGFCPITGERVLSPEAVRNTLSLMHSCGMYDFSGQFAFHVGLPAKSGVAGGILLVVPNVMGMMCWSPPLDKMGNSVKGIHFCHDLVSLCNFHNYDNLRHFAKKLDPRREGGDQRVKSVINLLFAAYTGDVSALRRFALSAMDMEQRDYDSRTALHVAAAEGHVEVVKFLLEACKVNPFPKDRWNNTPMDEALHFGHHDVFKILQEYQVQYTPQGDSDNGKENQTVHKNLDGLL

Target: Glutaminase kidney isoform, mitochondrial (Homo sapiens) (UniProt O94925)
Assay: qHTS for Inhibitors of Glutaminase (GLS)
Conditions: GLS enzymatic activity, qHTS titration; at 45.5 µM (top of the series)
Text: Glutaminase (GLS) catalyzes the hydrolysis of glutamine into glutamate and ammonia. It plays a critical role in glutaminolysis, which is an important energy source for proliferating cells. It was shown that c-Myc, an oncogenic transcription factor known to regulate microRNAs and to stimulate cell proliferation, increases glutamine metabolism by stimulating the expression of GLS via direct suppression of miR23a and miR23b.
GLS is also thought to play a pathogenic role on HAD using a human HIV-1 infected macrophage system. […] GLS inhibition limits glutamate release and provides neuroprotection against HIV-1 infected macrophages.
The overall goal of this project is to identify small molecule inhibitors of GLS through quantitative high throughput screening (qHTS) of the MLSMR. A validated potent and selective inhibitor can be used as a tool molecule to further study the pharmacology of its target as well as explore its potential therapeutic application in cancer and inflammatory neurological disorders, such as HIV1-associated dementia (HAD) and multiple sclerosis.
NIH Chemical Genomics Center [NCGC] […]
Three 3 uL of hKGA is dispensed into black well 1536-well plates in 45 mM KH2PO4 (pH 8.2), 0.02% Tween-20. […] Plate is centrifuged for 25 sec before an initial fluorescence read is obtained on the ViewLux, after 30 min of RT incubation, the final read is taken on the ViewLux.
% is set by controls: 0 for no effect and ±100 for the full control effect.

SMILES | activity change, negative = inhibition
COc1ccc(CC(C)NCC(O)c2ccc(O)c(NC=O)c2)cc1 (configuration not stated) | inactive: 38.1% and inactive: 50.2% and inactive: 24.1%
COc1ccc(C[C@H](C)NC[C@@H](O)c2ccc(O)c(NC=O)c2)cc1 | inactive: 72.2% and inactive: 63.2%
